Laboratory results published in patent US20020019395A1, “Indalone and benzimidazolone inhibitors of factor Xa” (priority 2000, published 2002).

Protein sequences, listed by entry. Tags and fused reporters are not part of them. Residues count along the entry.
UniProt P00742, 235-488 limits assumed: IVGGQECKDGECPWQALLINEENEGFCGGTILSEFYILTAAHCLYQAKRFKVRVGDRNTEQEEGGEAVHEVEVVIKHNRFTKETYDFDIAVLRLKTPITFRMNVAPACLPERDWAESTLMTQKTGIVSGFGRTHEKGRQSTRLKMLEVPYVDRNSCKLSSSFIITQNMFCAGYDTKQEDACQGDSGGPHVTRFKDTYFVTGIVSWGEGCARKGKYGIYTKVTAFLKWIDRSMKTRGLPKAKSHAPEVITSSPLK
UniProt P00742, 41-179 partner limits assumed: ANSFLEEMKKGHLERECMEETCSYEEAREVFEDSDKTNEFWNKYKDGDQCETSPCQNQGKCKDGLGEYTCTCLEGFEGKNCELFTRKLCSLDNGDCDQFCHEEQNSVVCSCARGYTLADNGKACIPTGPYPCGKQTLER
UniProt P00760, 24-246 limits assumed: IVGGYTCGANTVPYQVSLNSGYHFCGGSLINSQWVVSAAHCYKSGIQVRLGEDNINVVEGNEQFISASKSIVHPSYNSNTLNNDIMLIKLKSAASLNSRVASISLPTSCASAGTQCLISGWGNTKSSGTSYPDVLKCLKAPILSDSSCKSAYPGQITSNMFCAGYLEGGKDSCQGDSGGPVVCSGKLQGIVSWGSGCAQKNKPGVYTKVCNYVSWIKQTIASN
UniProt P04070, 212-450 limits assumed: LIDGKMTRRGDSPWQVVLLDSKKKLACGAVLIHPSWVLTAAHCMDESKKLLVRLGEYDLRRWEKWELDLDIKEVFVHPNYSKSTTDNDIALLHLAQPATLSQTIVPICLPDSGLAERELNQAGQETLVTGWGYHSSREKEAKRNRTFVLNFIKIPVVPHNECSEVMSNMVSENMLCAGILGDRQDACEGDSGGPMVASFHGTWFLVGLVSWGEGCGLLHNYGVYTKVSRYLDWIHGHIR
UniProt P04070, 43-197 partner limits assumed: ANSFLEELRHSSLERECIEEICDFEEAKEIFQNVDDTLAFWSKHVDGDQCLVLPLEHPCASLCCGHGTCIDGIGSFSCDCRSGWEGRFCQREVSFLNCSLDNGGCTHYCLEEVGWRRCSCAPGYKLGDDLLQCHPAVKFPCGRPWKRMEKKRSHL
UniProt P00750, 36-562 limits assumed: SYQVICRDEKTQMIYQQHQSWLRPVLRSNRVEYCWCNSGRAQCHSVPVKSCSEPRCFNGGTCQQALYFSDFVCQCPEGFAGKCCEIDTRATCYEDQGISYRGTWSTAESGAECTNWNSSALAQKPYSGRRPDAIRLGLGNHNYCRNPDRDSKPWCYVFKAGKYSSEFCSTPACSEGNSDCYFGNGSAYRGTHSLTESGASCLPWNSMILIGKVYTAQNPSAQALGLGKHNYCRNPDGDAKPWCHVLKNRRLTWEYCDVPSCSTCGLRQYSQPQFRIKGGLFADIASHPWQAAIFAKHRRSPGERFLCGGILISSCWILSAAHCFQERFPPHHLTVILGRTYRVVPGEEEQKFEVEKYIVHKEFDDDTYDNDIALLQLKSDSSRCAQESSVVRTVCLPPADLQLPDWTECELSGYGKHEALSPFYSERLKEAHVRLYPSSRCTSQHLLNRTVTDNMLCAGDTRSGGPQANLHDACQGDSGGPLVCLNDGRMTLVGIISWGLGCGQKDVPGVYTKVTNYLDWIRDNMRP
UniProt P00747, 581-810 limits assumed: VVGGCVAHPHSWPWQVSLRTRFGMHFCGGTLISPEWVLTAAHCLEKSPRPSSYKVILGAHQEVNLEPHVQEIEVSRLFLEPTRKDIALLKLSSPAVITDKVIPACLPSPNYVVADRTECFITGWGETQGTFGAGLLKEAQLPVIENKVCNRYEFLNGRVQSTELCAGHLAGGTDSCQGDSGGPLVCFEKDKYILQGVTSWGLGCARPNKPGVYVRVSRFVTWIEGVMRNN
UniProt P00747, 97-580 partner limits assumed: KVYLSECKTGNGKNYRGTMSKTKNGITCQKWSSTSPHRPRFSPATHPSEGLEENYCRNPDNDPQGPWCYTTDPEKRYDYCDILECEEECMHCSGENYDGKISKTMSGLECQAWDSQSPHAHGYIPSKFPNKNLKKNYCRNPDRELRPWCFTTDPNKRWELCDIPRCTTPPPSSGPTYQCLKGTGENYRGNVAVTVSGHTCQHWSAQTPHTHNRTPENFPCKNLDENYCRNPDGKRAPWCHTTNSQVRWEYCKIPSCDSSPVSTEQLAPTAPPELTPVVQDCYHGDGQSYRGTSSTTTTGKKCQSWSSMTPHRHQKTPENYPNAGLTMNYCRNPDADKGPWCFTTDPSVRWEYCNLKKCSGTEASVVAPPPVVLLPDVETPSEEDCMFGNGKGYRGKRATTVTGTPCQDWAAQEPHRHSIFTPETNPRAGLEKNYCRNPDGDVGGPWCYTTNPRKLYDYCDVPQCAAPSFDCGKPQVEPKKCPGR
UniProt P12259, 29-737 partner limits assumed: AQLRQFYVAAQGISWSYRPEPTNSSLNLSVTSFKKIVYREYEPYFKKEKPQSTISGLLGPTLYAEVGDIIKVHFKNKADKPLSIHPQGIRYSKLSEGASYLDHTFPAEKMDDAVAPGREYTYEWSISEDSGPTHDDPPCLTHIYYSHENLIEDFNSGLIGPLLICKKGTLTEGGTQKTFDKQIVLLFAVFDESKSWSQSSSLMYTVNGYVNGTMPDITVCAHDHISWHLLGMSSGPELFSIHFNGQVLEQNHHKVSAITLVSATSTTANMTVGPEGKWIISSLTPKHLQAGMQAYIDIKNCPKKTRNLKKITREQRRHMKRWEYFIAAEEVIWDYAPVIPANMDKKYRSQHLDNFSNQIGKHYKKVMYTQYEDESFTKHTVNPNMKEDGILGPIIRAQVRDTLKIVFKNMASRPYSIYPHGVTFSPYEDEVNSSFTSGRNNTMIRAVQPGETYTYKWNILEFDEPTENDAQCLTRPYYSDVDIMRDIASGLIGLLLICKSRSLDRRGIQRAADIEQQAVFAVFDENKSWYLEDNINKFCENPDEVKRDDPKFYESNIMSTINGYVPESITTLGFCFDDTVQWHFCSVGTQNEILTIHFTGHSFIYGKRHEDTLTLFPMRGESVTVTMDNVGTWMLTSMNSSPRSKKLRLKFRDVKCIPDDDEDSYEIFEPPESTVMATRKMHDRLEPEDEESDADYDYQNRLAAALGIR
UniProt P12259, 1574-2224 partner limits assumed: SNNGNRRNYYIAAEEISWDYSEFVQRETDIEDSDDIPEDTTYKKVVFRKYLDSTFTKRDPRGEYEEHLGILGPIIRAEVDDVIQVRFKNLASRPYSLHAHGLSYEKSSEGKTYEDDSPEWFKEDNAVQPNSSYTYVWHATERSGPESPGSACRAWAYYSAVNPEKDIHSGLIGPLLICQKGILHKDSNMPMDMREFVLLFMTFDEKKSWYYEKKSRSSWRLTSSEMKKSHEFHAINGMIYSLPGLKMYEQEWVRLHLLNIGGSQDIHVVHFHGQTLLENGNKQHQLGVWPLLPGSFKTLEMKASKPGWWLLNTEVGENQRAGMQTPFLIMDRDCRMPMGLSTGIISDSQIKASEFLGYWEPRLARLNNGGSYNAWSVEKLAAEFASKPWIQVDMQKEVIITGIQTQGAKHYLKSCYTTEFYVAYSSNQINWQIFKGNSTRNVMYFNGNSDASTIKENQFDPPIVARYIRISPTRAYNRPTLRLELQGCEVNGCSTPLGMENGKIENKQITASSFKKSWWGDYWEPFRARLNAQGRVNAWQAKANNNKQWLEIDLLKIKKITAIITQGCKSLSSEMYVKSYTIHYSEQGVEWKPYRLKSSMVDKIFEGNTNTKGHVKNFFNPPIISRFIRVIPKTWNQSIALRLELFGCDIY

Assays:
factor Xa = factor Xa (Homo sapiens, UniProt P00742); assay: factor Xa amidolytic assay (XA); conditions: read-out: XA IC50; substrate S-2765, pH 7.5, room temperature
Procedure: (§1) The compounds of the present invention are dissolved in buffer to give solutions containing concentrations such that assay concentrations range from about 0 to about 100 μM. In the assays for thrombin, prothrombinase and factor Xa, a synthetic chromogenic substrate is added to a solution containing test compound and the enzyme of interest and the residual catalytic activity of that enzyme is determined spectrophotometrically. The IC50 of a compound is determined from the substrate turnover. The IC50 is the concentration of test compound giving about 50% inhibition of the substrate turnover.
(§2) The factor Xa and thrombin assays were performed at room temperature, in 0.02 M Tris.HCl buffer, pH 7.5, containing 0.15 M NaCl. The rates of hydrolysis of the para-nitroanilide substrate S-2765 (Chromogenix) for factor Xa, and the substrate Chromozym TH (Boehringer Mannheim) for thrombin following preincubation of the enzyme with inhibitor for 5 minutes at room temperature, and were determined using the Softmax 96-well plate reader (Molecular Devices), monitored at 405 nm to measure the time dependent appearance of p-nitroaniline.

thrombin = thrombin (Homo sapiens, UniProt P00734); assay: thrombin amidolytic assay (IIA); conditions: read-out: IIA IC50; substrate Chromozym TH, pH 7.5, room temperature
Procedure: as §1, §2

TRYPSIN = TRYPSIN (Bos taurus, UniProt P00760); assay: trypsin protease inhibition assay; type: biochemical; conditions: read-out: TRYPSIN IC50
APC = APC (Homo sapiens, UniProt P04070); assay: APC protease inhibition assay; type: biochemical; conditions: read-out: APC IC50
TPA = TPA (Homo sapiens, UniProt P00750); assay: TPA protease inhibition assay; type: biochemical; conditions: read-out: TPA IC50
prothrombinase complex = prothrombinase complex (Homo sapiens, UniProt P00742); assay: prothrombinase inhibition assay (IIASE), plasma free system; conditions: read-out: IIASE IC50; factor Xa 0.5 nM, factor Va 2 nM, phospholipid, Chromozym TH
Procedure: as §1
The prothrombinase inhibition assay was performed in a plasma free system with modifications to the method described by Sinha, U. et al., Thromb. Res., 75, 427-436 (1994). Specifically, the activity of the prothrombinase complex was determined by measuring the time course of thrombin generation using the p-nitroanilide substrate Chromozym TH. The assay consists of preincubation (5 minutes) of selected compounds to be tested as inhibitors with the complex formed from factor Xa (0.5 nM), factor Va (2 nM), phosphatidyl serine:phosphatidyl choline (25:75, 20 μM) in 20 mM Tris.HCl buffer, pH 7.5, containing 0.15 M NaCl, 5 mM CaCl2 and 0.1% bovine serum albumin. […] The rate of substrate cleavage was monitored at 405 nm for two minutes. […]

PLASMIN = PLASMIN (Homo sapiens, UniProt P00747); assay: plasmin protease inhibition assay; type: biochemical; conditions: read-out: PLASMIN IC50
KALLIKREIN = assay: kallikrein protease inhibition assay; type: biochemical; conditions: read-out: KALLIKREIN IC50

Structure (SMILES)	IC50 (factor Xa)	IC50 (thrombin)	IC50 (TRYPSIN)	IC50 (APC)	IC50 (TPA)	IC50 (prothrombinase complex)	IC50 (PLASMIN)	IC50 (KALLIKREIN)
CCn1c(Cn2c(=O)[nH]c3ccc(OC4CCN(C(C)=N)CC4)cc32)cc2ccc(C(N)=NO)cc21	107 nM	359 µM	3450 nM	–	–	–	–	–
CCn1c(Cn2c(=O)[nH]c3ccc(OC4CCN(C(C)=N)CC4)cc32)cc2ccc(C(=N)N)cc21 [Example 17]	3.57 nM	12 µM	56 nM	1090 nM	3250 nM	2.49 nM	475 nM	241 nM
CCn1c(Cn2c(=O)[nH]c3ccc(OC4CCN(C(=N)N)CC4)cc32)cc2ccc(C(=N)N)cc21 [Example 18]	3.83 nM	1.5 µM	63.7 nM	794 nM	1640 nM	3.13 nM	246 nM	135 nM
